Key:
µLight = µLight (Homo sapiens, UniProt P35372, V175Q); test: [3H]diprenorphine displacement binding, µLight cell membranes
δLight = δLight (Homo sapiens, UniProt P41143); test: in situ titration, fluorescence ΔF/F in δLight stable HEK293T cells; format: cell-based; details: compound 10 nM; normalized to ME; n = 4 wells; ± s.e.m.

Chains of the proteins cited; added tags and fusions are not shown. A line that says so, or that is headed by a name, gives the form on record, which may keep a tag or linker. Residues count along the entry.
UniProt P35372, whole entry V175Q, looked up: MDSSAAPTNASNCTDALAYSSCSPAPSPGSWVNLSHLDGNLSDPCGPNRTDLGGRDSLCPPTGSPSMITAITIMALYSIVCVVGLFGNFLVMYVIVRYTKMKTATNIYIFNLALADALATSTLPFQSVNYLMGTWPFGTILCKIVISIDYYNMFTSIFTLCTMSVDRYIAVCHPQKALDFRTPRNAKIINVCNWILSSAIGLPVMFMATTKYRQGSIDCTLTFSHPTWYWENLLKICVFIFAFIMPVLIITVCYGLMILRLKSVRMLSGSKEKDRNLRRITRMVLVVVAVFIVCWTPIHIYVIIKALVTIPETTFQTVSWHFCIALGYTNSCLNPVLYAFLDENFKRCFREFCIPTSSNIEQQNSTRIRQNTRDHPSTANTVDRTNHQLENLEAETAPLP
UniProt P41143, 1-372 with tags or gaps with the stated changes: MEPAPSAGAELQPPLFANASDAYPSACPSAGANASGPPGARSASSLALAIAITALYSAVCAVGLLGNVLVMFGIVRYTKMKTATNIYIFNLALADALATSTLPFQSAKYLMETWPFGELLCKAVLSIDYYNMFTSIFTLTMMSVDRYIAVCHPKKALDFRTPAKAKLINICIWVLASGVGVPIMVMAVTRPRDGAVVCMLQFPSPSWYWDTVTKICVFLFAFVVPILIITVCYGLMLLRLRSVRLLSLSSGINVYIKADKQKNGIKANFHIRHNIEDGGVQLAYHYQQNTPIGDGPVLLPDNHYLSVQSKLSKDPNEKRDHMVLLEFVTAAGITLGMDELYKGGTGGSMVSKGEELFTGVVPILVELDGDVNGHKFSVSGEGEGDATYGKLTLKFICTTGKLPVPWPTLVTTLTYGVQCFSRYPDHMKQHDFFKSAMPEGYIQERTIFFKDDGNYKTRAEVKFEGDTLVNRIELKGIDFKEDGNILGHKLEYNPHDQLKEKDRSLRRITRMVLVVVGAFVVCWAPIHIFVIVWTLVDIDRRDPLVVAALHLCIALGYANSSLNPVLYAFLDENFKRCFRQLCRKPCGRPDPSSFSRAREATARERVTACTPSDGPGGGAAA

## CSCC[C@H](NC(=O)[C@H](Cc1ccccc1)NC(=O)CNC(=O)CNC(=O)[C@@H](N)Cc1ccc(O)cc1)C(=O)N[C@@H](CCCNC(=N)N)C(=O)N[C@@H](CCCNC(=N)N)C(=O)N[C@H](C(N)=O)C(C)C
µLight
  order of magnitude of IC50 at µLight: µM IC50
δLight
  Normalized ΔF/F of δLight: 0.07 ± 0.02

— publication PMC11374718, “Unlocking opioid neuropeptide dynamics with genetically encoded biosensors” (Nature Neuroscience, 2024)
